Earlier results in publication PMC4475445 (Journal of immunology (Baltimore, Md. : 1950), 2015).

Chains of the proteins cited; added tags and fusions are not shown. Lines headed by an entry give the natural chain unless they say otherwise; changes in a name come on top.
UniProt Q06187: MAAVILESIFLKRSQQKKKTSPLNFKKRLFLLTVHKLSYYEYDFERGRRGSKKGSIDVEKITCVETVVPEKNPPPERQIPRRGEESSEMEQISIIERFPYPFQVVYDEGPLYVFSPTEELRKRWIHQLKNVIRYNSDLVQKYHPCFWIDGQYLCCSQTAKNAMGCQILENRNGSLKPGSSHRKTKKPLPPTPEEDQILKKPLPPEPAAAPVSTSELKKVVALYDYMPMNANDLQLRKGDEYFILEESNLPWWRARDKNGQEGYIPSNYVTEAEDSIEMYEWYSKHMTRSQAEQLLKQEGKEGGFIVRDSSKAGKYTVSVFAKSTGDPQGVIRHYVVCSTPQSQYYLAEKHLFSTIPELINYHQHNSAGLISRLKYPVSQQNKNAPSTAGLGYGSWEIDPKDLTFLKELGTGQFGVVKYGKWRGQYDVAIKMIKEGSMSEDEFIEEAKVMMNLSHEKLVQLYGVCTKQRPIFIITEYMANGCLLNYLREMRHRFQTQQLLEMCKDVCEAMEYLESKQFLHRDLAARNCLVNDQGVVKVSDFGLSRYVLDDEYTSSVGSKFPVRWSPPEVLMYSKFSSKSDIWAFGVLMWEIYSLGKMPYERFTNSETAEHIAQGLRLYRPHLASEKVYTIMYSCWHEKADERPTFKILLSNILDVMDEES

Biological target: Btk (Homo sapiens, UniProt Q06187)
Settings: read-out: IC50 Btk; enzymatic activity; cited from earlier work

C=CC(=O)Nc1cccc(Nc2nc(Nc3ccc(OCCOC)cc3)ncc2F)c1 [CC-292]
IC50: 5.9 nM
